Assay results as given in patent publication US8575391B2, “5-substituted-2-phenylamino benzamides as MEK inhibitors” (priority 2004, dated 2013).

System: Human colon cancer cell line HT-29
Assay: Tumor growth suppressive activity in mouse model carrying human cancer (HT-29 xenograft)
Details: HT-29 subcutaneous in BALB/c nu/nu mice, oral once a day for 14 days

## C#Cc1ccc(Nc2c(C(=O)NOCCO)cc(CN3OCCCC3=O)c(F)c2F)c(F)c1 [Compound G-4, 2-(4-Ethynyl-2-fluoro-phenylamino)-3,4-difluoro-N-(2-hydroxy-ethoxy)-5-(3-oxo-[1,2]oxadinan-2-ylmethyl)-benzamide]
  Tumor growth suppression rate at maximum tolerance dose (MTD) 1 day after last administration: 112%
